Antibody variant affinities, Ab-95 light chain, assay 2

All variants were tested on one target, the spike HR2 peptide PDVDLGDISGINAS (SARS-CoV-2).

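Variants in AAYL52 differ from the parent at up to three CDR positions; double and triple changes were sampled at random. The assay is AlphaSeq: two haploid yeast populations carry antibody and antigen on their surface. After mating in shaken culture at 30 °C for 16 h, diploids were selected and their barcode pairs sequenced. Read counts were normalised to the haploid input and turned into Kd by a linear fit to BCL2-family pairs of known affinity, for each replicate. Mating was done three times.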

Parent scFv Ab-95: VH joined to VL by a 15-residue (Gly4Ser)3 linker. Changes lie in the light chain CDRs alone.
VH: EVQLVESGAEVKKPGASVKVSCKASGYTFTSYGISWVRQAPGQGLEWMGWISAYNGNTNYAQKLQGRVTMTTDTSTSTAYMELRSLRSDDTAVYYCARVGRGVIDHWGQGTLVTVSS
VL: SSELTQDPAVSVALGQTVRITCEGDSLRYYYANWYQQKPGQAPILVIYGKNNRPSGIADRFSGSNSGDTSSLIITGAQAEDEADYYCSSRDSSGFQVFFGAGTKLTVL

Changes read parent residue, position, new residue, counted from the first residue of the VL shown. Values are log10 of the apparent Kd in nM; lower means stronger binding. A pair that was not seen in that replicate is written "ND"; this usually means weak binding, but a binder can also be missed.

changes,"log10 Kd, replicates",signal with controls
A32Y/K50T/S89Q,3.75 / 3.72 / ND,3/9 (3.63)
R53M/S88K/V97Y,3.54 / 4.13 / ND,5/9 (4.27)
R28S/Y31W/F98Y,3.06 / 2.50 / 3.00,1/9 (3.67)
N33G/S92Q/F98M,4.31 / ND / 2.87,3/9 (4.40)
S88F/F95G/F98P,5.09 / ND / 3.30,2/9 (3.47)
N51T/S92F/F95G,ND / 4.49 / ND,4/9 (3.81)
S89W/R90G/S93K,3.93 / ND / ND,4/9 (3.82)
Y29S/R53V,2.17 / 2.56 / 1.97,5/9 (4.19)
Y29N/K50N/S93V,3.15 / 3.93 / 2.20,0/9
K50R/S88V/V97D,4.51 / 5.78 / ND,2/9 (4.00)
N33T/G49P/G94M,3.61 / ND / ND,3/9 (4.36)
D25T/Y30N/Q96N,0.55 / 0.49 / -0.07,9/9 (4.15)
K50Y/P54E/F95D,4.97 / 3.70 / ND,3/9 (3.53)
G24P/Y30E/R90N,4.17 / 4.29 / ND,2/9 (3.60)
Y29W/Y31T/K50H,2.79 / 2.37 / 2.22,2/9 (3.48)
S26Y/R28S/R53S,3.44 / 3.42 / 2.59,1/9 (4.06)
E23C/S26K/S93I,2.48 / 2.98 / 2.39,4/9 (3.62)
E23H/N33T/N51I,4.47 / 3.10 / 3.37,2/9 (4.07)
E23F/G24Y/V97Q,ND / ND / ND,2/9 (3.28)
E23V/N51Y/F98R,ND / 3.13 / 2.39,0/9
Y31D/K50W/S55G,1.99 / 1.73 / 1.36,6/9 (5.19)
P54D/S55Y/F95T,3.16 / 2.57 / 2.65,3/9 (3.66)
N52G/S92H/G94K,ND / ND / ND,1/9 (4.08)
S26F/S93A/G94D,3.99 / 4.26 / 2.62,3/9 (3.19)
E23G/D91W,4.29 / 2.92 / 3.55,5/9 (3.72)
E23A/D25S/Q96L,2.19 / 2.40 / 2.05,7/9 (4.03)
Y31L/N33Q/D91R,3.69 / 3.00 / 3.56,5/9 (4.40)
R28P/Y30D/N51M,3.16 / 3.13 / 2.90,5/9 (4.47)
Y31P/N33C/F95H,3.46 / 3.33 / 2.49,5/9 (4.35)
G24W/S55P/S88W,4.43 / 4.64 / ND,2/9 (3.70)
S26E/S55V/G94L,3.98 / 5.60 / 4.40,4/9 (3.76)
A32H/S55V/S92N,ND / ND / 3.86,2/9 (3.21)
Y29P/S93V/V97Y,3.96 / ND / ND,0/9
Y30C/S92R/F95M,2.79 / 2.64 / 1.98,1/9 (3.17)
G24I/V97P,2.52 / 2.48 / 3.13,1/9 (4.81)
G24I/Y31M/N51A,2.60 / 2.60 / 3.74,3/9 (3.83)
Y29W/R53D/Q96A,4.64 / 4.31 / ND,4/9 (3.62)
Y30K/N51P/F98H,5.13 / 4.99 / ND,5/9 (3.83)

Background: pairings of library AAYL52 with three empty control strains gave a value in 28% of cases (median 3.91, 5th percentile 2.90). Values in that range, when seen in few replicates, are hard to tell from nonspecific mating. For each scFv, signals with the empty controls are counted beside the result, with their mean in brackets.

The measurements come from Engelhart et al. 2022 (doi:10.1038/s41597-022-01779-4) through the FLAb antibody collection.